The experiment addresses T1, Human-derived DNA-PK kinase (Homo sapiens, UniProt P78527).
T1 construct: Eurofins (contract laboratory that ran the test)
Nature of the experiment: DNA-PK enzyme activity test (HTRF, phosphorylation of GST-cMyc-p53). It is filed as biochemical. On the procedure:
The compounds of the present disclosure used for experiments are all prepared in-house, and their chemical names and structural formulas are shown in the preparation examples of each compound. The experimental tests were carried out by a UK company Eurofins, and the experimental results were provided by the company. The following experimental processes were also provided by the company.
Human-derived DNA-PK kinase was incubated in a buffer solution containing 50 nM of GST-cMyc-p53 and Mg/ATP. The concentration of Mg/ATP was determined according to different needs. The reaction was initiated by adding a Mg/ATP complex. After incubating for about 30 minutes at room temperature, a stop solution containing EDTA was added to stop the reaction. Finally, for phosphorylated p53, a detection buffer containing a d2-labeled anti-GST monoclonal antibody and an europium-labeled phosphorylated Ser15 antibody was added. Then time-resolved fluorescence mode was used to read a detection disk, and a homogeneous time-resolved fluorescence (HTRF) signal was obtained by calculating formula HTRF=10000×(Em665 nm/Em620 nm).

By UniProt entry, the sequences of proteins in these tests, tags left out.
UniProt P78527, whole entry: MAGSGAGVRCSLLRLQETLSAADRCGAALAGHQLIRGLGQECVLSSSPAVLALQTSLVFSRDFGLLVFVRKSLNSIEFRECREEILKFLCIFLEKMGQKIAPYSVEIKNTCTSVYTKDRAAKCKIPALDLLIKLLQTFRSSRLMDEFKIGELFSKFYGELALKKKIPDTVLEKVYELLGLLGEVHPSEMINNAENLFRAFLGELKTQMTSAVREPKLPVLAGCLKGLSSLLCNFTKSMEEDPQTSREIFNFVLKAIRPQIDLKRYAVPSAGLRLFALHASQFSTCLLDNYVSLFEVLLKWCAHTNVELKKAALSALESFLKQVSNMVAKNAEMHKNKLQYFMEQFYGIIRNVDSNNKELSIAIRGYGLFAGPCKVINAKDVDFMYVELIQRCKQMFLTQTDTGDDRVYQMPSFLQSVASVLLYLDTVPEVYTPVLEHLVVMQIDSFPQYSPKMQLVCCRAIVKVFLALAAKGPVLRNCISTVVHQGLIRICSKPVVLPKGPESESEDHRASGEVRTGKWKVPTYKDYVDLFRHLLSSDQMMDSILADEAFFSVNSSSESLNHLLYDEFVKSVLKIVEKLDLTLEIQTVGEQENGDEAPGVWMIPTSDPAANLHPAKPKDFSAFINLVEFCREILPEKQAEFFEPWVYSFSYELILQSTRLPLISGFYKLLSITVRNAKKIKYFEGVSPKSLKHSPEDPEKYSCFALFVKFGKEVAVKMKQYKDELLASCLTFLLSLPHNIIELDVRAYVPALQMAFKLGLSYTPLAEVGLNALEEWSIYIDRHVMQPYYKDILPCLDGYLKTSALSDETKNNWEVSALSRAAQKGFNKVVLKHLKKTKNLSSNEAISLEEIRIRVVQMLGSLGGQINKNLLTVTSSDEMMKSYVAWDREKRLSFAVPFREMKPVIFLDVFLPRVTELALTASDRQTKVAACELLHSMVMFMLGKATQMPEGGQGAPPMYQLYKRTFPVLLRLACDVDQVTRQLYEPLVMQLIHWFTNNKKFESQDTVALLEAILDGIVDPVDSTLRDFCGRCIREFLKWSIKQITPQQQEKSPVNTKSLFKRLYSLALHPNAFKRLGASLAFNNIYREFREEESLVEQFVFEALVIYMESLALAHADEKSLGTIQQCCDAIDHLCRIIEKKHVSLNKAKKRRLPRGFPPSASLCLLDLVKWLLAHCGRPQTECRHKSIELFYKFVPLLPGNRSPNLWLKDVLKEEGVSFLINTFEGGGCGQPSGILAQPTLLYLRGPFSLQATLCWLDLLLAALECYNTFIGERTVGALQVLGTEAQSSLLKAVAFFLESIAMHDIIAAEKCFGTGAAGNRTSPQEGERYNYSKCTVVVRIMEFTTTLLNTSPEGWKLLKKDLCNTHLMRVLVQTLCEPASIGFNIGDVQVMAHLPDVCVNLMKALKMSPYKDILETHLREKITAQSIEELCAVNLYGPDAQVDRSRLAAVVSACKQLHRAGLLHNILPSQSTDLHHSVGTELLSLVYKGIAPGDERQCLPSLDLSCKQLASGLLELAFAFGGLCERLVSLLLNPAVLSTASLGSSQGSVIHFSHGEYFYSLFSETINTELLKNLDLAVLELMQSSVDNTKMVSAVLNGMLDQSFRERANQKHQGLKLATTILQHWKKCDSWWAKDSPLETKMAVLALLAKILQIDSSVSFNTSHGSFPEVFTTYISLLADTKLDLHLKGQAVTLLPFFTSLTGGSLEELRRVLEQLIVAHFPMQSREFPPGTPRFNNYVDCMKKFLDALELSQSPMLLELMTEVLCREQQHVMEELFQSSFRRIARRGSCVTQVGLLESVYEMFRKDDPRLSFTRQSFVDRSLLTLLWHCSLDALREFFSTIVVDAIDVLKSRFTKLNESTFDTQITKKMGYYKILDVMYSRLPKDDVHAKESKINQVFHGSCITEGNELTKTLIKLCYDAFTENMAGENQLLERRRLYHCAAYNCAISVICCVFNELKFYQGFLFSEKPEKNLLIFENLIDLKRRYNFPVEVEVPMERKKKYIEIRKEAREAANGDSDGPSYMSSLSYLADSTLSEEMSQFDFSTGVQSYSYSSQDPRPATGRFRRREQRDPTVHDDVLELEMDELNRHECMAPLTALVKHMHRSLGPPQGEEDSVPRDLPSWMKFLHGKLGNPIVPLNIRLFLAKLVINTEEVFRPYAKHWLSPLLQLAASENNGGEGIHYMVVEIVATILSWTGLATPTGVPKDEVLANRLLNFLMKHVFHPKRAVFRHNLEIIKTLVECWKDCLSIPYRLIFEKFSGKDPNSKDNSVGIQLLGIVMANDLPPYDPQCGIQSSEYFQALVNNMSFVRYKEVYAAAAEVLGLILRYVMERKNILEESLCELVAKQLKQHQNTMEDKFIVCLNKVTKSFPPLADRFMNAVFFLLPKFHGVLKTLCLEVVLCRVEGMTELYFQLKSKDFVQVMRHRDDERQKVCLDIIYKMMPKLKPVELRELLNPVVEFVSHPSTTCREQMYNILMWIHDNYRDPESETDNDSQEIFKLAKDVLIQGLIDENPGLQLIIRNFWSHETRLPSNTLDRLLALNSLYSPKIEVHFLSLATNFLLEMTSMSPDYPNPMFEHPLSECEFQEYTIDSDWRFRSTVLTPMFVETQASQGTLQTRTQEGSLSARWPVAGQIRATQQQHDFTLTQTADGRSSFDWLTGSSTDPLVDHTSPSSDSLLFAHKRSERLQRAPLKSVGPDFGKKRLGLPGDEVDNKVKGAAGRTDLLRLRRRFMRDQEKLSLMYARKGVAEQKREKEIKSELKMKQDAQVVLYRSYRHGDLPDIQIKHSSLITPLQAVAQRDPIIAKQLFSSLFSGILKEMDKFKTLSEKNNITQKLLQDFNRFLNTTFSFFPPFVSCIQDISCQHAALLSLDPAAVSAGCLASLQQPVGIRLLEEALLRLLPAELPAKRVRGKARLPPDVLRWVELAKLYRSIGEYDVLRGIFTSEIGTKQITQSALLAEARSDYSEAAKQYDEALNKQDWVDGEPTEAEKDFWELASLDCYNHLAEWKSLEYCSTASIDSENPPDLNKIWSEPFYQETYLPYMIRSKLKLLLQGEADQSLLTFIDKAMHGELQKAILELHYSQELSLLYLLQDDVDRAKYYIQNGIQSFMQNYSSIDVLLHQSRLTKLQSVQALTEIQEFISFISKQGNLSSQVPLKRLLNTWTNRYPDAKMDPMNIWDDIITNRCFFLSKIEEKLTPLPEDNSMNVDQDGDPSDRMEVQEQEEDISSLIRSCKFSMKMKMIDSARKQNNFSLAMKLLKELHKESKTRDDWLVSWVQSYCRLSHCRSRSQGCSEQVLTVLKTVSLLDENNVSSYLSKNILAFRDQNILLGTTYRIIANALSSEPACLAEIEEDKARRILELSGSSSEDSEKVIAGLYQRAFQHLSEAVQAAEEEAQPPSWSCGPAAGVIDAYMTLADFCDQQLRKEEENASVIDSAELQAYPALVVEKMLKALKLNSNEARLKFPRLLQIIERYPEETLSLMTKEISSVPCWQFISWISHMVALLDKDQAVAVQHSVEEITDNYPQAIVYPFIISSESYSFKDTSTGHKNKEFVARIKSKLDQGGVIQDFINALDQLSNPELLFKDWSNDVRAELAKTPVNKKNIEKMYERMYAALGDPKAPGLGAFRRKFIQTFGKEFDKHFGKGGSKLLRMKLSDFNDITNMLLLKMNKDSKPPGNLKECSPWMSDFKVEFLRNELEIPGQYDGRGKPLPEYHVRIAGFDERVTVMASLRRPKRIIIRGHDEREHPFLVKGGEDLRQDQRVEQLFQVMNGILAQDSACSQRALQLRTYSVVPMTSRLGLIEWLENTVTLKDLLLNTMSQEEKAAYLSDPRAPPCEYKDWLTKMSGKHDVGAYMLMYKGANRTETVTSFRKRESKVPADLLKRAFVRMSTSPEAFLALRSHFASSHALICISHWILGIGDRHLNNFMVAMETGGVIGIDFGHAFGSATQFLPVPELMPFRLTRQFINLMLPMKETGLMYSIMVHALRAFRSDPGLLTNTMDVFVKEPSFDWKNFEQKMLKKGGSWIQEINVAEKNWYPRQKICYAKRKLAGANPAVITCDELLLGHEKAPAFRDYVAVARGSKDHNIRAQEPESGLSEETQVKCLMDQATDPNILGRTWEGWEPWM

One compound from patent US11230549B2, “Quinolino-pyrrolidin-2-one derivative and application thereof” (MEDSHINE DISCOVERY INC., priority 2018, dated 2022) can be followed below.

Molecules are shown by their SMILES.

`CN(C)CCCOc1ccc(-c2ccc3ncc4c(c3c2)n(C2CCOCC2)c(=O)n4C)cn1` [AZD0156, reference compound] came in with an IC50 of 58 nM. This lies in the double-digit nanomolar range.
